Results: PMC4304654 (Bioorganic & medicinal chemistry, 2012)

Test: Unbound fraction in plasma by rapid equilibrium dialysis
Format: in vitro ADME
Conditions: mouse, pH 7.4

## Nc1scc2c(C(=O)NC3CC3)nn(-c3ccc(F)cc3)c(=O)c12 [Compound 43, 5-Amino-N-cyclopropyl-3-(4-fluorophenyl)-4-oxo-3,4-dihydrothieno[3,4-d]pyridazine-1-carboxamide]
  fraction unbound at 5 h, 1 μM: 0.069 ± 0.004
